Measurements reported in article PMC12363342, “Investigating the N-terminal linker histone H1 subtypes as substrates for JmjC lysine demethylases” (RSC Chemical Biology, 2025).

Molecular target: T1, KDM4E (Homo sapiens, UniProt B2RXH2)
T1 construct: KDM4DM1-L359,[39]; KDM4EM1-R336,[30]; His6 (N); made in house; host or cells: Escherichia coli
T1 sequence (B2RXH2 1-336): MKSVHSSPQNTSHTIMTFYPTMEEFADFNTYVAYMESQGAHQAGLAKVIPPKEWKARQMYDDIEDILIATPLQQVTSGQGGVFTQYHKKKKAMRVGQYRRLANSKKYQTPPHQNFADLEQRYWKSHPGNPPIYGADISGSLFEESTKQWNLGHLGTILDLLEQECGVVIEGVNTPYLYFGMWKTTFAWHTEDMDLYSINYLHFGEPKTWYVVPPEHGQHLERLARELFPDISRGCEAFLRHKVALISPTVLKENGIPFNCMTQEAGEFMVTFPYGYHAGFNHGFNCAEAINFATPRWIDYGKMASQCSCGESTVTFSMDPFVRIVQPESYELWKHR
Assay: formaldehyde dehydrogenase (FDH)-coupled demethylation assay, KDM4E
Type: biochemical
Conditions: FDH-coupled fluorescence assay, KDM4E (400 nM), peptide 1–50 μM, HEPES pH 7.5
Protocol: Kinetic parameters were determined by recording the initial reaction rates of NADH production at varying histone peptide concentrations (Fig. S24 and S25). The overall catalytic efficiencies (as measured by kcat/KM) gave the following rank orders for KDM4D: H1.5K26me3 (0.192 μM^−1 min^−1) > H1.3K24me3 (0.066 μM^−1 min^−1) ≈ H1.2K26me3 (0.063 μM^−1 min^−1) > H1.4K25me3 (0.044 μM^−1 min^−1). For KDM4E, the kinetic rank order was as follows: H3K9me3 (0.585 μM^−1 min^−1) > H1.2K26me3 (0.360 μM^−1 min^−1) > H1.5K26me3 (0.324 μM^−1 min^−1) ≈ H1.3K24me3 (0.310 μM^−1 min^−1) > H1.2K25me3 (0.247 μM^−1 min^−1) ≈ H1.4K25me3 (0.226 μM^−1 min^−1). These rank orders differ somewhat from the initial screening results. However, given the complexities of 2OG oxygenase catalysis and the relatively low catalytic efficiencies observed, such apparent discrepancies are not unexpected.[28] […]
Kinetic parameters for demethylation of N^ε-trimethylated H1 peptides by KDM4D and KDM4E (400 nM) measured using a formaldehyde dehydrogenase-coupled demethylation assay. […]
Substrate Km values for KDM4 enzymes were determined using a reported formaldehyde dehydrogenase/NAD coupled enzyme assay that quantifies formaldehyde production.[30] […] Coupled enzyme-assays were carried out in black polystyrene 384-well non-binding surface microplates (Corning) and kinetic measurements were obtained using a PHERAstar FS plate reader (BMG Labtech) equipped with a 350 nm excitation and 460 nm emission optic module.[30] […] Assays were initiated by plate reader injection of 25 μL of a mixture of KDM4 (0.8 μM) and formaldehyde dehydrogenase (FDH) (2.0 μM) in assay buffer (50 mM HEPES pH 7.5, 0.01% (v/v) Tween-20). Production of NADH was measured at 60 second intervals over 25 cycles. Kinetic parameters were determined from the reaction rate during the initial linear phase of formaldehyde production, and specific activities were calculated from a formaldehyde standard curve and fitted to the Michaelis–Menten equation using GraphPad Prism Version 5.0 (GraphPad software, La Jolla, CA, USA). […]

[1] = FAS 20 μM, LAA 200 μM, 2OG 200 μM, NAD+ 500 μM, FDH 2.0 μM, mean ± SEM (n = 3)

ARTKQTARKme3STGGKA [Peptide H3K9me3, histone H3 residues 1-15 peptide with tri-methylated K9; commercial positive control, reference compound]
Km [1]: 6.72 ± 1.51 µM
kcat (KDM4E) [1]: 0.0655 ± 0.00317 s⁻¹
kcat/KM (KDM4E) (catalytic efficiency): 9750 M⁻¹ s⁻¹
